Values of other authors in patent publication US11000512B2, “Use of DDX3 inhibitors as antiproliferative agents” (AZIENDA OSPEDALIERA UNIVERSITARIA SENESE, priority 2016, dated 2021).
pKi: −log10 of the molar value.

Amino acid sequences for entries named in this document (tags omitted).
UniProt O00571, whole entry: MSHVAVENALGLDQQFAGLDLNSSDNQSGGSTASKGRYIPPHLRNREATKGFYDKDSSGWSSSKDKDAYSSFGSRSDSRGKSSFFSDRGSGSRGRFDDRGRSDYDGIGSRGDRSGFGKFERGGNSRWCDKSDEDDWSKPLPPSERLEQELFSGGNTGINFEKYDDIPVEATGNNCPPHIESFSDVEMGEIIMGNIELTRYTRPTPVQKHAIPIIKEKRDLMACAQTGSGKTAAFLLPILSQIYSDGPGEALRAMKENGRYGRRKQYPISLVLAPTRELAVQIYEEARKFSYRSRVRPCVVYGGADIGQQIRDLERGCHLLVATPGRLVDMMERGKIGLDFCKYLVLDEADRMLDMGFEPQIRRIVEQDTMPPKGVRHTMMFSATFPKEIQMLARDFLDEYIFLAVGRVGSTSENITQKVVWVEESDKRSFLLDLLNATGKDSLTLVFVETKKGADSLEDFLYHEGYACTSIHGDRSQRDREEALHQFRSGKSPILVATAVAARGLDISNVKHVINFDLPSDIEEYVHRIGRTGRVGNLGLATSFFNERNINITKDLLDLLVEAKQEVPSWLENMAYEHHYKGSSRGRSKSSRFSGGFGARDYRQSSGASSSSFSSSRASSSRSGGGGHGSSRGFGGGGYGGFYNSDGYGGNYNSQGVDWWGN

Molecular target: ATPase activity of DDX3 (Homo sapiens, UniProt O00571)
Conditions: on DDX3; second-generation and triazine inhibitors, 2011; cited from earlier work

O=C1/C(=C/c2c(NCCCO)nc3ccccn3c2=O)SC(=S)N1CCc1ccccc1
pKi: 6.70
